Nrf2 block – inhibitors of Nrf2 signaling. 360,000 compounds, 2.1% hits. A549 ARE-Fluc reporter, luciferase luminescence, 18-24 h. Potency, µM (titrated, usually from 46 µM), for inactives: at the highest dose activity change, negative = inhibition, hits mostly inhibitors; further: potency means the concentration at half of the fitted maximal effect; on the % scale 0 is the no-effect control and ±100 the full control effect; nearly all actives have a fitted effect of over 60% in size
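A549 ARE_Fluc cells, 5000/well, 5% FBS OPTI-MEM; compounds in dose-response, 18-24 h at 37 °C/5% CO2; CellTiter-Fluor viability read (Ex 405/Em 525), then BugLite luciferase luminescence = Nrf2 activity.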
miR-21 reporter – miR-21 reporter, rising signal. HeLa miR-21 FLuc reporter, luciferase, 48 h. Potency, µM (highest dose often 38.3 µM), for the others: at the highest dose reporter change, positive = more light. 340,000 tested, under 10 active. AID 2288; active = well fitted rising curve with a large enough effect; inconclusive = small, poorly fitted or top-dose-only effect; inactive = no such curve, though single readings can be large or run the other way;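 further: % of control where 0% means no effect; miR-21 action dims this reporter so a rising signal means less miR-21 action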
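HeLa cells endogenously expressing miR-21, stably carrying CMV-driven firefly luciferase with a downstream miR-21 binding site, 2000 cells/well. Titrations up to approximately 40 uM, 48 hours; luciferase luminescence read.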
ClpP mod – qHTS Assay for Activators of ClpP. purified B. subtilis ClpP, FRET peptide cleavage, 20 min. 340,000 compounds, 1.9% hits. ATP-dependent Clp protease proteolytic subunit (Bacillus subtilis (strain 168)), P80244. Potency, µM (highest dose often 57.5 µM), for inactives: at the highest dose activity change, negative = active. AID 651965, 2013; active means well fitted falling curve with a large enough effect; inconclusive means small, poorly fitted or top-dose-only effect; inactive means no such curve, though single readings can be large or run the other way; further: potency means the concentration at half of the fitted maximal effect; the source files actives as falling curves though it sought activators and does not explain the sign; nearly all actives have a fitted effect of over 65% in size
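Buffer: 100 mM Tris/HCl pH8, 100 mM KCl, 0.05% low protease BSA, 2.5% glycerol, 0.01% Tween-20. ClpP 10 microg/mL final; 20 min RT; delta FRET normalized to ADEP and DMSO controls.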
TCR activator – T cell receptor activation; primary human leukocytes, anti-CD3, IL-2 HTRF, 48 h; Potency, µM (highest dose often 9.22 µM), for the others: top-dose activation of IL-2 secretion, usual class: activators; 330,000 tested, under 10 active; AID 504894; further: % of control where 0% means no effect
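Primary human leukocytes were stimulated with a-CD3 beads plus compounds for 48 hr without co-stimulation; secreted IL-2 was quantified by HTRF using a-IL-2-K (europium cryptate) and a-IL-2-d2, excited at 320nm with acceptor emission read at 665nm.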
Nrf2 activator – activators of Nrf2 (ARE) signaling; AREc32 ARE-luciferase reporter (MCF7-derived line), luminescence, 24 h; Potency, µM (doses to about 46.1 µM), for inactives: top-dose activation, most hits filed as activators; 410,000 compounds, 0.31% hits; further: potency means the concentration at half of the fitted maximal effect; % of control where 0% means no effect; nearly all actives have a fitted effect of over 65% in size
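ARE activation measured as luciferase luminescence (Steady-Glo, 30 min RT) in AREc32_Fluc cells after 24 hr compound exposure at 37 deg C, 5% CO2; cells seeded overnight at 1000/well in OPTI-MEM, 5% FBS.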
A549 tox – A549 cytotoxicity, counter-screen for Nrf2 inhibitors; Potency, µM (titrated, usually from 46 µM), inactives show top-dose activity change, negative = cytotoxicity, hits mostly inhibitors; A549 ARE-Fluc cells, CellTiter-Fluor viability, 18-24 h; 390,000 compounds, 0.16% hits; further: potency means the concentration at half of the fitted maximal effect; on the % scale 0 is the no-effect control and ±100 the full control effect
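A549 ARE-Fluc cells in 5% FBS OPTI-MEM, 5000 cells/well, rested 2 h then exposed to compounds in concentration-response for 18-24 h at 37 °C. Viability by CellTiter-Fluor fluorescence (Ex 405/Em 525) after 30 min; luciferase luminescence (BugLite, 15 min, RT) read afterwards.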
* hit, by the source's call; ? = inconclusive; . = not tested or not shown; [ ] = another dose, or the depositor's remark. Compounds with a hit are over-represented: about 3.7% of the library has one in this group of screens. Unless noted, the call rests on the fitted dose curve; in most records, active means well fitted curve in the direction sought with a large enough effect; inconclusive means small, poorly fitted or top-dose-only effect, or another doubt; inactive means no such curve, though single readings can be large; an effect the other way counts as inactive or inconclusive.

1. CCn1cc2nc(SCc3cccc(C)c3)n(CCc3ccccc3)c(=O)c2n1
2. CCn1cc2nc(SCc3cccc(C(F)(F)F)c3)n(CCc3ccccc3)c(=O)c2n1
3. CC(C)N(C(=O)CSc1nc(Cc2ccccc2)nc2ccccc12)C(C)C
4. CC(C)(C)NC(=O)CSc1nc(Cc2ccccc2)nc2ccccc12
5. CCOc1cc(C)c(-c2onc(C(F)(F)F)c2-c2csc(C)n2)c(O)c1
6. O=C(COc1ccccc1C(=O)Nc1ccccc1)Nc1ccccc1F
7. Cc1sc2ncnc(N3CCN(c4ncccn4)CC3)c2c1C
8. Cc1cc(C)c(C)c(S(=O)(=O)N2CCN(c3ncnc4sc(C)c(C)c34)CC2)c1C

| assay / entry | 1 | 2 | 3 | 4 | 5 | 6 | 7 | 8 |
| --- | --- | --- | --- | --- | --- | --- | --- | --- |
| Nrf2 block | ? | 15µM* | 18µM* | ? | ? | . | 15µM* | 2% |
| miR-21 reporter | 19% | 30% | 6% | -5% | ? | . | 15% | 3% |
| ClpP mod | -3% | -1% | -1% | 2% | -2% | 1% | -4% | 0% |
| TCR activator | . | . | -5% | -4% | 0% | . | 3% | 1% |
| Nrf2 activator | -1% | 0% | 2% | 9% | 2% | . | -1% | 2% |
| A549 tox | -3% | 2% | 3% | -8% | 26µM* | . | -12% | 1% |

9. COc1cc(C(=O)N2CCN(c3ncnc4sc(C)c(C)c34)CC2)cc(OC)c1OC
10. Cc1cc(C)n(-c2ncnc3sc(C)c(C)c23)n1
11. CCS(=O)(=O)N1CCN(c2ncnc3sc(C)c(C)c23)CC1
12. O=[S+]([O-])(c1ccc(-c2ccccc2)cc1)N1CCN([S+](=O)([O-])c2ccc3c(c2)OCCO3)CC1
13. CC(=O)Nc1ccccc1-c1nc2ccccc2n(CC(=O)c2ccc(C)c(C)c2)c1=O
14. O=P(CCNCc1ccco1)(c1ccccc1)c1ccccc1
15. O=C(NCc1ccc(Cl)nc1)c1csc([C@@H]2C[C@H](O)[C@@H](CO)O2)n1
16. CCc1ccc(OCC(=O)Nc2ccc(-c3nc4ccccc4o3)c(O)c2)cc1

| assay / entry | 9 | 10 | 11 | 12 | 13 | 14 | 15 | 16 |
| --- | --- | --- | --- | --- | --- | --- | --- | --- |
| Nrf2 block | 10µM* | 1% | -13% | 21% | 16% | 2% | . | . |
| miR-21 reporter | 19% | -14% | 1% | . | -8% | -2% | . | -11% |
| ClpP mod | -1% | 32µM* | . | . | -1% | 4µM* | 0% | -29% |
| TCR activator | 1% | 2% | 4% | . | . | 1% | . | 2% |
| Nrf2 activator | 0% | 3% | -1% | . | 0% | 0% | 0% | 4% |
| A549 tox | ? | -1% | 2% | 10% | 6% | 0% | . | -1% |

17. Oc1cc(NCc2cccnc2)ccc1-c1nc2ccccc2o1
18. Oc1ccccc1-c1nc(NCc2cccnc2)c2ccccc2n1
19. CC(Oc1ccc(Br)cc1)C(=O)Nc1cc(S(=O)(=O)N2CCOCC2)ccc1N1CCCC1 (stereo unspecified)
20. CCN(CC)CCn1c2ccccc2c2cnc(N)c(C#N)c21
21. CC(C)OCCCN(Cc1ccco1)C(=O)c1cc2c(s1)-c1ccccc1OC2
22. NC(N)=NC(N)=NCCc1ccccc1
23. O=c1[nH]c2ccc(S(=O)(=O)N3CCN(S(=O)(=O)c4c(F)cccc4F)CC3)cc2[nH]c1=O
24. O=c1[nH]c2ccc(S(=O)(=O)N3CCN(C4CCCCC4)CC3)cc2[nH]c1=O

| assay / entry | 17 | 18 | 19 | 20 | 21 | 22 | 23 | 24 |
| --- | --- | --- | --- | --- | --- | --- | --- | --- |
| Nrf2 block | ? | 12µM* | -12% | 5.2µM* | 16µM* | 13µM* | 4% | 3% |
| miR-21 reporter | -38% | 5% | . | 24% | 5% | -19% | . | 0% |
| ClpP mod | 35µM* | 4% | . | 14µM* | 5% | 0% | . | 28µM* |
| TCR activator | 4% | 1% | -6% | 3% | . | -1% | . | . |
| Nrf2 activator | 17% | -2% | -1% | 12% | 0% | 2% | . | 0% |
| A549 tox | -1% | ? | -1% | ? | 7% | -6% | -10% | 8% |

25. O=c1[nH]c2ccc(S(=O)(=O)N3CCN(Cc4ccccc4)CC3)cc2[nH]c1=O
26. CC(=NNC(=O)c1cccc(S(=O)(=O)N2CCOCC2)c1)c1ccc(Cl)cc1
27. COc1ccc(N2CC(C(=O)NC3CCSC3=O)CC2=O)cc1 (stereo unspecified)
28. N#Cc1ccc(-n2nnc3ccccc3c2=O)c([N+](=O)[O-])c1
29. N=c1c2ccccc2nnn1-c1ccccc1[N+](=O)[O-]
30. COc1ccc(C2C3C=CCC(c4ccccc4)C3C(=O)N2Cc2ccccc2)cc1Cl (stereo unspecified)
31. COc1ccc(-c2c(C3C4C=CCC(C)C4C(=O)N3Cc3ccccc3)ccc3ccccc23)cc1OC (stereo unspecified)
32. COc1ccc(C2C3C=CCC(c4cccc(-c5ccc(C)cc5)c4)C3C(=O)N2Cc2ccccc2)cc1Cl (stereo unspecified)

| assay / entry | 25 | 26 | 27 | 28 | 29 | 30 | 31 | 32 |
| --- | --- | --- | --- | --- | --- | --- | --- | --- |
| Nrf2 block | 13% | ? | 6% | -11% | 0% | 21µM* | 21µM* | -4% |
| miR-21 reporter | 0% | . | 0% | . | . | . | . | 21% |
| ClpP mod | 28µM* | . | . | . | -1% | . | . | -4% |
| TCR activator | 8% | 6% | -4% | -6% | 3% | . | . | -7% |
| Nrf2 activator | -1% | 2% | 0% | 0% | 14µM* | . | . | -1% |
| A549 tox | -10% | 2% | -3% | 0% | 4% | ? | -15% | -3% |

Ordered by SMILES length (rising): part of the list above
30. COc1ccc(C2C3C=CCC(c4ccccc4)C3C(=O)N2Cc2ccccc2)cc1Cl (stereo unspecified)
25. O=c1[nH]c2ccc(S(=O)(=O)N3CCN(Cc4ccccc4)CC3)cc2[nH]c1=O
31. COc1ccc(-c2c(C3C4C=CCC(C)C4C(=O)N3Cc3ccccc3)ccc3ccccc23)cc1OC (stereo unspecified)

| assay / entry | 30 | 25 | 31 |
| --- | --- | --- | --- |
| Nrf2 block | 21µM* | 13% | 21µM* |
| miR-21 reporter | . | 0% | . |
| ClpP mod | . | 28µM* | . |
| TCR activator | . | 8% | . |
| Nrf2 activator | . | -1% | . |
| A549 tox | ? | -10% | -15% |

Some entries already given, showing only Nrf2 activator, TCR activator and ClpP mod.
| nr | SMILES | Nrf2 activator | TCR activator | ClpP mod |
| --- | --- | --- | --- | --- |
| 27 | COc1ccc(N2CC(C(=O)NC3CCSC3=O)CC2=O)cc1 (stereo unspecified) | 0% | -4% | . |
| 29 | N=c1c2ccccc2nnn1-c1ccccc1[N+](=O)[O-] | 14µM* | 3% | -1% |

(further entries)
33. COc1ccc(-c2ccc([C@H]3[C@H]4C=CC[C@@H](C)[C@@H]4C(=O)N3Cc3ccccc3)c(F)c2)cc1
34. COc1ccc(-c2ccc(OC)c([C@H]3[C@H]4C=CC[C@@H](C)[C@@H]4C(=O)N3Cc3ccccc3)c2)cc1
35. COc1ccc(-c2ccc(C)cc2)cc1[C@H]1[C@H]2C=CC[C@@H](C)[C@@H]2C(=O)N1Cc1ccccc1
36. CCCN(CCC)S(=O)(=O)c1ccc2c(c1)N(CC(=O)NCc1ccc(F)cc1Cl)C(=O)CS2
37. CCn1c(=O)c2sccc2n2c(CCC(=O)Nc3ccc(OC)cc3OC)nnc12
38. COc1ccc([N+](=O)[O-])cc1NC(=O)C(C)Sc1nc(C)c(C)c(C)n1 (stereo unspecified)
39. COc1ccc([N+](=O)[O-])cc1NC(=O)c1ccccc1SC
40. CSc1ccccc1C(=O)Nc1cccc([N+](=O)[O-])c1
41. CSc1nnc(-c2sc3cc(C(F)(F)F)cnc3c2-c2ccccc2)n1C
42. O=C(O)c1sc2cc(C(F)(F)F)cnc2c1-c1ccccc1
43. Cn1ccnc1SCC(=O)n1c2c(c3ccccc31)CCCC2

| assay / entry | 33 | 34 | 35 | 36 | 37 | 38 | 39 | 40 | 41 | 42 | 43 |
| --- | --- | --- | --- | --- | --- | --- | --- | --- | --- | --- | --- |
| Nrf2 block | ? | ? | 7% | . | -10% | -3% | -28% | -21% | . | 23% | -7% |
| miR-21 reporter | 13% | -1% | -7% | ? | 2% | -13% | -4% | -5% | 23% | 0% | -8% |
| ClpP mod | 20µM* | 25µM* | -3% | 3% | -1% | 28µM* | 28µM* | -21% | 32µM* | -5% | 32µM* |
| TCR activator | -10% | 0% | -2% | . | . | -4%[46.1 µM] | -2% | -7% | 12% | 4% | -2%[46.1 µM] |
| Nrf2 activator | 4% | -1% | 0% | 3% | 0% | 0% | 0% | 11% | -1% | 0% | 0% |
| A549 tox | 11% | -16% | -1% | -20% | 1% | 8% | 9% | -8% | -2% | 0% | 0% |

Screening data (PubChem)
